The values that follow come from ChEMBL document CHEMBL3352559, “Synthesis and pharmacological investigation of aralkyl diamine derivatives as potential triple reuptake inhibitors” (Eur J Med Chem, 2014).

The experiment concerns the target Sodium-dependent noradrenaline transporter (Homo sapiens, UniProt P23975). Briefly: Displacement of [3H]Nisoxetine from human NET at 10 uM relative to control. (In general: Loss of bound radioactivity is the signal in a displacement assay; it reports binding, not function.)

In general, inhibition refers to the relative decrease from the control value, in per cent. A higher inhibition goes with strong suppression.

As to `CN(C)CCC(c1ccc(Cl)c(Cl)c1)N1CCOCC1` (stereo unspecified), the inhibition came out at 83.8%.
